Reference: patent EP4834897A1, “COMPOUNDS WITH TWO AZAHETEROCYCLES SUBSTITUTED ISOINDOLINONE SKELETON AND USES THEREOF” (dated 2026)

Amino acid sequences for entries named in this document (tags omitted).
UniProt P15170, whole entry: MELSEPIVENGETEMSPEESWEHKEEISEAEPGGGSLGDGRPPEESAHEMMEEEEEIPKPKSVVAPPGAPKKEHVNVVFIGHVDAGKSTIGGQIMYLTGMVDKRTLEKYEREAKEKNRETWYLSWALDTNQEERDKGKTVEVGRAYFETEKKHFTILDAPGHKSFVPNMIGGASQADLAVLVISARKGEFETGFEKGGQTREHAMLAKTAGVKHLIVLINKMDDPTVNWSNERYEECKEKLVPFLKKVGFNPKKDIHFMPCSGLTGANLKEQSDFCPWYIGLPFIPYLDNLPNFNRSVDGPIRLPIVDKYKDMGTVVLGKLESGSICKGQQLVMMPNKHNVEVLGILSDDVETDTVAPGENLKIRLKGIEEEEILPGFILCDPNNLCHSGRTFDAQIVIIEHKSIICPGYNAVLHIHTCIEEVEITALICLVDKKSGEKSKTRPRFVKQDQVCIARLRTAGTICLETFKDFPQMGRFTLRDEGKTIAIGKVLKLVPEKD
UniProt Q96SW2, whole entry: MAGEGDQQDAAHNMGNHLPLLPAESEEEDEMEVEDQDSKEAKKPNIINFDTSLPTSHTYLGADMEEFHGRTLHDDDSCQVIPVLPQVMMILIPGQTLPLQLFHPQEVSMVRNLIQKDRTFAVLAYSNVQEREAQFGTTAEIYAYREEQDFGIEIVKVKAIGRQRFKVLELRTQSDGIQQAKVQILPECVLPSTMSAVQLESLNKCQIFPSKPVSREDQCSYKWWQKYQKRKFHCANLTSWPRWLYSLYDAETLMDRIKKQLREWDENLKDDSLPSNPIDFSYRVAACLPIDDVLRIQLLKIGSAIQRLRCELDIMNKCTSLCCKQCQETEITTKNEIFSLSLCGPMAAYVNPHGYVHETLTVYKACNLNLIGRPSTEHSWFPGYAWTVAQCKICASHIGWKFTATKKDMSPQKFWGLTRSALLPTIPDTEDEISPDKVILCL
UniProt P48729, whole entry: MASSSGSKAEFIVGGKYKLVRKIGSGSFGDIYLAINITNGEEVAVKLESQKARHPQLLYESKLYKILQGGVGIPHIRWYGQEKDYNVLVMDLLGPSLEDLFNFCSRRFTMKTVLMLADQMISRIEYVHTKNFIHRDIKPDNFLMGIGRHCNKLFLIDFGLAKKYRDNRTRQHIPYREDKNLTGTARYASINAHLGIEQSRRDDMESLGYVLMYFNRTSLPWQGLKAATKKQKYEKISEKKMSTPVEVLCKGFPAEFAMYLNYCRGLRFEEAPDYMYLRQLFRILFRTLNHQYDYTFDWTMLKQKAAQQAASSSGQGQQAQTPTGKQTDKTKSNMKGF
UniProt Q13422, whole entry: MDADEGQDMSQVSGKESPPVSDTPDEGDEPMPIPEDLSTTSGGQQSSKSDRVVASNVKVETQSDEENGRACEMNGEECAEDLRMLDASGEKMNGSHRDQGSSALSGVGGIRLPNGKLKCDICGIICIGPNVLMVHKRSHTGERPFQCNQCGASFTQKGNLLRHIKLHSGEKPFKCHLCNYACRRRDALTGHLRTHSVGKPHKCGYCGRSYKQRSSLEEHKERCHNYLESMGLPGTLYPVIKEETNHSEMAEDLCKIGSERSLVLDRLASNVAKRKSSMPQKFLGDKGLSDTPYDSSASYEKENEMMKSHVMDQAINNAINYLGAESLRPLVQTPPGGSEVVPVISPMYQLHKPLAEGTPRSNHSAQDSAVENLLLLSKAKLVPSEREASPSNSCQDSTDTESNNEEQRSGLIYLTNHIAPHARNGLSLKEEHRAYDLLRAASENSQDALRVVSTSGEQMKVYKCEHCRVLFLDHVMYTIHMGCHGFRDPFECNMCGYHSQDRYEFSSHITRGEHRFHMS
UniProt Q9UKT9, whole entry: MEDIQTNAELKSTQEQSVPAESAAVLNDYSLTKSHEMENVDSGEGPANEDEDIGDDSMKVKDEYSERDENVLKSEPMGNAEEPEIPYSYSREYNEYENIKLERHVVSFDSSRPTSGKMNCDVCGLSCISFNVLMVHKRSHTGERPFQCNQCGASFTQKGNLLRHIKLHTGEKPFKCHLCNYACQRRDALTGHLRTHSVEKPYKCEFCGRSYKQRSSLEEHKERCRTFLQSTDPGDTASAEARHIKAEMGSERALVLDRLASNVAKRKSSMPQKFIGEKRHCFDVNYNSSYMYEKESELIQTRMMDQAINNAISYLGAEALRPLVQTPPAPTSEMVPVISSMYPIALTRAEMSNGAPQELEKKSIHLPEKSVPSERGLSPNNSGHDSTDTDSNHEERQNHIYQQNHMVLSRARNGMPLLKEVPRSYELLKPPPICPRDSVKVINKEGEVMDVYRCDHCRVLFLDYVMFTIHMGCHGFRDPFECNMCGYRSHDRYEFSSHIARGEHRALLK
UniProt P30291, whole entry: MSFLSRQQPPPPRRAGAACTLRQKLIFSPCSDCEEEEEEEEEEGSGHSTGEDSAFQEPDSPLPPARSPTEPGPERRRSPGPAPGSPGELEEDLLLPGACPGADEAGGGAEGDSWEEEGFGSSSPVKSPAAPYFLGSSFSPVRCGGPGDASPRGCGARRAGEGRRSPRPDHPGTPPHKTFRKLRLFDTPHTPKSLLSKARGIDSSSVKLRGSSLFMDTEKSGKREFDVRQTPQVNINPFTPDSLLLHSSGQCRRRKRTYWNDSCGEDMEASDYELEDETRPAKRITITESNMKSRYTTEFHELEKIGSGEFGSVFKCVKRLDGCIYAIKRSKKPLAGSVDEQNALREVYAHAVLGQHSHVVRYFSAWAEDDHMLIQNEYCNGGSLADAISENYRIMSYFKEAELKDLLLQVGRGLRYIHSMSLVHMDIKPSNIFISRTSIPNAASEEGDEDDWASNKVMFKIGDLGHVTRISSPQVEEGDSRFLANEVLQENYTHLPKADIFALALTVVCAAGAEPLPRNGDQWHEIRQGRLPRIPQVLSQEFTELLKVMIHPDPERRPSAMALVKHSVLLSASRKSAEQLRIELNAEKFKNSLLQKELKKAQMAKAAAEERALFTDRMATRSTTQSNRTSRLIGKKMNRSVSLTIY
UniProt Q9UKS7, whole entry: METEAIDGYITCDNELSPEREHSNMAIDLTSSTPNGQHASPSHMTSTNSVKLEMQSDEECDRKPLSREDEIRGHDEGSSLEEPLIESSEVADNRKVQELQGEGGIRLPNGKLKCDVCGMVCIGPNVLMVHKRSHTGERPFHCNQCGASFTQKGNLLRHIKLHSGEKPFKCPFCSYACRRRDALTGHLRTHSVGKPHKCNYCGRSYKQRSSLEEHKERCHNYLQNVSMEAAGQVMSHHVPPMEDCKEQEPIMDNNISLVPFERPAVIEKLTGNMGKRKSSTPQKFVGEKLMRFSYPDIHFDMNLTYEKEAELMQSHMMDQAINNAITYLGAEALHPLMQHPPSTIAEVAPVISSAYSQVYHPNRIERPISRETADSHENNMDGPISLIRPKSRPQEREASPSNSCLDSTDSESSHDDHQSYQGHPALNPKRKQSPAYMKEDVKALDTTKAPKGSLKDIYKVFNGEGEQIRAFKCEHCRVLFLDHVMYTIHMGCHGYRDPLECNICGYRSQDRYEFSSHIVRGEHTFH
UniProt Q16531, whole entry partner: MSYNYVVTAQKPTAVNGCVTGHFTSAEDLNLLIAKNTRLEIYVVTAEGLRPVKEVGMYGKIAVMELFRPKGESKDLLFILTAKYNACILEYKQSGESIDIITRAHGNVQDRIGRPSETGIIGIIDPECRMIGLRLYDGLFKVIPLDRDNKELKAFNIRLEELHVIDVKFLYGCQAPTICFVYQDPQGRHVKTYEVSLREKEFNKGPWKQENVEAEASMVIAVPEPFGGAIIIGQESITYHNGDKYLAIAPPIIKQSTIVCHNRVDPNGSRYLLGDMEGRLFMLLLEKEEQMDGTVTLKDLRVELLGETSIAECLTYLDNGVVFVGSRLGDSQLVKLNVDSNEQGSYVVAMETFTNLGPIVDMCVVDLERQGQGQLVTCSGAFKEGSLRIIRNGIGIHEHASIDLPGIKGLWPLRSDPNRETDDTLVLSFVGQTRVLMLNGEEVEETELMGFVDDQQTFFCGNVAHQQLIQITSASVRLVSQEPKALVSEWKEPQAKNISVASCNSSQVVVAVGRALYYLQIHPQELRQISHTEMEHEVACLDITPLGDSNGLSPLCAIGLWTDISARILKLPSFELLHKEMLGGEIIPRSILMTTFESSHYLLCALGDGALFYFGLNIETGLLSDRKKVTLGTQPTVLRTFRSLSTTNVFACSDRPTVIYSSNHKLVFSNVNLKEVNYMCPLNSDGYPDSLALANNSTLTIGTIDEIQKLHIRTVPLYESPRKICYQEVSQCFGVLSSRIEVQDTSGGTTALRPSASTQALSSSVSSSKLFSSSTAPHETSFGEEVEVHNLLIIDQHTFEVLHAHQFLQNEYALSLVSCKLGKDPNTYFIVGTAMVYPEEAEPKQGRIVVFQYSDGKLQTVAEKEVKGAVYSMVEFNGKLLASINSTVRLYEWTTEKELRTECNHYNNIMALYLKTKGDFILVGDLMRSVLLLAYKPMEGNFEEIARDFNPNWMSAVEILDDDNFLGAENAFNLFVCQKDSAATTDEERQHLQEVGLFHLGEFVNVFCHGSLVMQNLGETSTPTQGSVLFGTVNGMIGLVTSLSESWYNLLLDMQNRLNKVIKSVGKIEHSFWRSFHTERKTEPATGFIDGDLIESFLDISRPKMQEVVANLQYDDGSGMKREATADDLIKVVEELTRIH

target: GSPT1 (Homo sapiens, UniProt P15170+Q96SW2); assay: Western blot assay of substrate protein degradation in hPBMCs; settings: 24 hours treatment, compounds at 50 nM and 500 nM (concentration behind the class not stated)

SMILES	substrate protein remaining % (GSPT1)
O=C1CCC(N2C(=O)c3cccc(CN4CCC(N5CCN(C(c6ccccc6)c6ccccn6)CC5)C(F)(F)C4)c3C2=O)C(=O)N1 (stereo not drawn)	A (0% ≤ substrate protein remaining % ≤ 80%)
O=C1CCC(N2C(=O)c3ccc(C(=O)N4CCC(N5CCN(C(c6ccccc6)c6ccccc6)CC5)C(F)(F)C4)cc3C2=O)C(=O)N1 (stereo not drawn)	A (0% ≤ substrate protein remaining % ≤ 80%)
O=C1CCC(N2Cc3c(CN4CCC(N5CCN(C(c6ccccc6)c6ccccc6)CC5)C(F)(F)C4)cccc3C2=O)C(=O)N1 (stereo not drawn)	A (0% ≤ substrate protein remaining % ≤ 80%)
O=C1CCC(N2Cc3ccc(CN4CCC(N5CCN(C(c6ccccc6)c6ccccc6)CC5)CC4)cc3C2=O)C(=O)N1 (stereo not drawn)	A (0% ≤ substrate protein remaining % ≤ 80%)
O=C1CCC(N2C(=O)c3ccc(CN4CCC(N5CCC(c6noc7cc(F)ccc67)CC5)C(F)(F)C4)cc3C2=O)C(=O)N1 (stereo not drawn)	A (0% ≤ substrate protein remaining % ≤ 80%)
O=C1CCC(N2Cc3cc(C(=O)N4CCC(N5CCN(c6cccc(Cl)c6Cl)CC5)CC4)ccc3C2=O)C(=O)N1 (stereo not drawn)	A (0% ≤ substrate protein remaining % ≤ 80%)
CC1(C)CCC(C(=O)N2CCN(C3CCN(Cc4ccc5c(c4)C(=O)N(N4CCC(=O)NC4=O)C5=O)CC3(F)F)CC2)=C(c2ccc(Cl)cc2)C1 (stereo not drawn)	A (0% ≤ substrate protein remaining % ≤ 80%)
O=C1CCC(N2C(=O)c3cccc(C(=O)N4CCC(N5CCN(c6noc7cc(F)ccc67)CC5)CC4)c3C2=O)C(=O)N1 (stereo not drawn)	A (0% ≤ substrate protein remaining % ≤ 80%)

target: CK1α (Homo sapiens, UniProt P48729+Q96SW2); assay: as above; settings: 24 hours treatment, compounds at 50 nM and 500 nM (concentration behind the class not stated)

SMILES	substrate protein remaining % (CK1a)
O=C1CCC(N2C(=O)c3cccc(CN4CCC(N5CCN(C(c6ccccc6)c6ccccn6)CC5)C(F)(F)C4)c3C2=O)C(=O)N1 (stereo not drawn)	A (0% ≤ substrate protein remaining % ≤ 80%)
O=C1CCC(N2C(=O)c3ccc(C(=O)N4CCC(N5CCN(C(c6ccccc6)c6ccccc6)CC5)C(F)(F)C4)cc3C2=O)C(=O)N1 (stereo not drawn)	B (80%< substrate protein remaining %≤ 100%)
O=C1CCC(N2Cc3c(CN4CCC(N5CCN(C(c6ccccc6)c6ccccc6)CC5)C(F)(F)C4)cccc3C2=O)C(=O)N1 (stereo not drawn)	B (80%< substrate protein remaining %≤ 100%)
O=C1CCC(N2Cc3ccc(CN4CCC(N5CCN(C(c6ccccc6)c6ccccc6)CC5)CC4)cc3C2=O)C(=O)N1 (stereo not drawn)	B (80%< substrate protein remaining %≤ 100%)
O=C1CCC(N2C(=O)c3ccc(CN4CCC(N5CCC(c6noc7cc(F)ccc67)CC5)C(F)(F)C4)cc3C2=O)C(=O)N1 (stereo not drawn)	B (80%< substrate protein remaining %≤ 100%)
O=C1CCC(N2Cc3cc(C(=O)N4CCC(N5CCN(c6cccc(Cl)c6Cl)CC5)CC4)ccc3C2=O)C(=O)N1 (stereo not drawn)	B (80%< substrate protein remaining %≤ 100%)
CC1(C)CCC(C(=O)N2CCN(C3CCN(Cc4ccc5c(c4)C(=O)N(N4CCC(=O)NC4=O)C5=O)CC3(F)F)CC2)=C(c2ccc(Cl)cc2)C1 (stereo not drawn)	B (80%< substrate protein remaining %≤ 100%)
O=C1CCC(N2C(=O)c3cccc(C(=O)N4CCC(N5CCN(c6noc7cc(F)ccc67)CC5)CC4)c3C2=O)C(=O)N1 (stereo not drawn)	B (80%< substrate protein remaining %≤ 100%)

target: IKZF1 (Homo sapiens, UniProt Q13422+Q96SW2); assay: as above; settings: 24 hours treatment, compounds at 50 nM and 500 nM (concentration behind the class not stated)

SMILES	substrate protein remaining % (IKZF 1)
O=C1CCC(N2C(=O)c3cccc(CN4CCC(N5CCN(C(c6ccccc6)c6ccccn6)CC5)C(F)(F)C4)c3C2=O)C(=O)N1 (stereo not drawn)	B (80%< substrate protein remaining %≤ 100%)
O=C1CCC(N2C(=O)c3ccc(C(=O)N4CCC(N5CCN(C(c6ccccc6)c6ccccc6)CC5)C(F)(F)C4)cc3C2=O)C(=O)N1 (stereo not drawn)	B (80%< substrate protein remaining %≤ 100%)
O=C1CCC(N2Cc3c(CN4CCC(N5CCN(C(c6ccccc6)c6ccccc6)CC5)C(F)(F)C4)cccc3C2=O)C(=O)N1 (stereo not drawn)	A (0% ≤ substrate protein remaining % ≤ 80%)
O=C1CCC(N2Cc3ccc(CN4CCC(N5CCN(C(c6ccccc6)c6ccccc6)CC5)CC4)cc3C2=O)C(=O)N1 (stereo not drawn)	B (80%< substrate protein remaining %≤ 100%)
O=C1CCC(N2C(=O)c3ccc(CN4CCC(N5CCC(c6noc7cc(F)ccc67)CC5)C(F)(F)C4)cc3C2=O)C(=O)N1 (stereo not drawn)	B (80%< substrate protein remaining %≤ 100%)
O=C1CCC(N2Cc3cc(C(=O)N4CCC(N5CCN(c6cccc(Cl)c6Cl)CC5)CC4)ccc3C2=O)C(=O)N1 (stereo not drawn)	B (80%< substrate protein remaining %≤ 100%)
CC1(C)CCC(C(=O)N2CCN(C3CCN(Cc4ccc5c(c4)C(=O)N(N4CCC(=O)NC4=O)C5=O)CC3(F)F)CC2)=C(c2ccc(Cl)cc2)C1 (stereo not drawn)	B (80%< substrate protein remaining %≤ 100%)
O=C1CCC(N2C(=O)c3cccc(C(=O)N4CCC(N5CCN(c6noc7cc(F)ccc67)CC5)CC4)c3C2=O)C(=O)N1 (stereo not drawn)	A (0% ≤ substrate protein remaining % ≤ 80%)

target: IKZF3 (Homo sapiens, UniProt Q96SW2+Q9UKT9); assay: as above; settings: 24 hours treatment, compounds at 50 nM and 500 nM (concentration behind the class not stated)

SMILES	substrate protein remaining % (IKZF3)
O=C1CCC(N2C(=O)c3cccc(CN4CCC(N5CCN(C(c6ccccc6)c6ccccn6)CC5)C(F)(F)C4)c3C2=O)C(=O)N1 (stereo not drawn)	B (80%< substrate protein remaining %≤ 100%)
O=C1CCC(N2C(=O)c3ccc(C(=O)N4CCC(N5CCN(C(c6ccccc6)c6ccccc6)CC5)C(F)(F)C4)cc3C2=O)C(=O)N1 (stereo not drawn)	A (0% ≤ substrate protein remaining % ≤ 80%)
O=C1CCC(N2Cc3c(CN4CCC(N5CCN(C(c6ccccc6)c6ccccc6)CC5)C(F)(F)C4)cccc3C2=O)C(=O)N1 (stereo not drawn)	A (0% ≤ substrate protein remaining % ≤ 80%)
O=C1CCC(N2Cc3ccc(CN4CCC(N5CCN(C(c6ccccc6)c6ccccc6)CC5)CC4)cc3C2=O)C(=O)N1 (stereo not drawn)	A (0% ≤ substrate protein remaining % ≤ 80%)
O=C1CCC(N2C(=O)c3ccc(CN4CCC(N5CCC(c6noc7cc(F)ccc67)CC5)C(F)(F)C4)cc3C2=O)C(=O)N1 (stereo not drawn)	B (80%< substrate protein remaining %≤ 100%)
O=C1CCC(N2Cc3cc(C(=O)N4CCC(N5CCN(c6cccc(Cl)c6Cl)CC5)CC4)ccc3C2=O)C(=O)N1 (stereo not drawn)	B (80%< substrate protein remaining %≤ 100%)
CC1(C)CCC(C(=O)N2CCN(C3CCN(Cc4ccc5c(c4)C(=O)N(N4CCC(=O)NC4=O)C5=O)CC3(F)F)CC2)=C(c2ccc(Cl)cc2)C1 (stereo not drawn)	A (0% ≤ substrate protein remaining % ≤ 80%)
O=C1CCC(N2C(=O)c3cccc(C(=O)N4CCC(N5CCN(c6noc7cc(F)ccc67)CC5)CC4)c3C2=O)C(=O)N1 (stereo not drawn)	B (80%< substrate protein remaining %≤ 100%)

target: WEE1 (Homo sapiens, UniProt P30291+Q96SW2); assay: as above; settings: 24 hours treatment, compounds at 50 nM and 500 nM (concentration behind the class not stated)

SMILES	substrate protein remaining % (WEE1)
O=C1CCC(N2C(=O)c3cccc(CN4CCC(N5CCN(C(c6ccccc6)c6ccccn6)CC5)C(F)(F)C4)c3C2=O)C(=O)N1 (stereo not drawn)	B (80%< substrate protein remaining %≤ 100%)
O=C1CCC(N2C(=O)c3ccc(C(=O)N4CCC(N5CCN(C(c6ccccc6)c6ccccc6)CC5)C(F)(F)C4)cc3C2=O)C(=O)N1 (stereo not drawn)	B (80%< substrate protein remaining %≤ 100%)
O=C1CCC(N2Cc3c(CN4CCC(N5CCN(C(c6ccccc6)c6ccccc6)CC5)C(F)(F)C4)cccc3C2=O)C(=O)N1 (stereo not drawn)	A (0% ≤ substrate protein remaining % ≤ 80%)
O=C1CCC(N2Cc3ccc(CN4CCC(N5CCN(C(c6ccccc6)c6ccccc6)CC5)CC4)cc3C2=O)C(=O)N1 (stereo not drawn)	B (80%< substrate protein remaining %≤ 100%)
O=C1CCC(N2C(=O)c3ccc(CN4CCC(N5CCC(c6noc7cc(F)ccc67)CC5)C(F)(F)C4)cc3C2=O)C(=O)N1 (stereo not drawn)	B (80%< substrate protein remaining %≤ 100%)
O=C1CCC(N2Cc3cc(C(=O)N4CCC(N5CCN(c6cccc(Cl)c6Cl)CC5)CC4)ccc3C2=O)C(=O)N1 (stereo not drawn)	B (80%< substrate protein remaining %≤ 100%)
CC1(C)CCC(C(=O)N2CCN(C3CCN(Cc4ccc5c(c4)C(=O)N(N4CCC(=O)NC4=O)C5=O)CC3(F)F)CC2)=C(c2ccc(Cl)cc2)C1 (stereo not drawn)	B (80%< substrate protein remaining %≤ 100%)
O=C1CCC(N2C(=O)c3cccc(C(=O)N4CCC(N5CCN(c6noc7cc(F)ccc67)CC5)CC4)c3C2=O)C(=O)N1 (stereo not drawn)	B (80%< substrate protein remaining %≤ 100%)

target: IKZF2 (Homo sapiens, UniProt Q96SW2+Q9UKS7); assay: as above; settings: 24 hours treatment, compounds at 50 nM and 500 nM (concentration behind the class not stated)

SMILES	substrate protein remaining % (IKZF2)
O=C1CCC(N2C(=O)c3cccc(CN4CCC(N5CCN(C(c6ccccc6)c6ccccn6)CC5)C(F)(F)C4)c3C2=O)C(=O)N1 (stereo not drawn)	B (80%< substrate protein remaining %≤ 100%)
O=C1CCC(N2C(=O)c3ccc(C(=O)N4CCC(N5CCN(C(c6ccccc6)c6ccccc6)CC5)C(F)(F)C4)cc3C2=O)C(=O)N1 (stereo not drawn)	A (0% ≤ substrate protein remaining % ≤ 80%)
O=C1CCC(N2Cc3c(CN4CCC(N5CCN(C(c6ccccc6)c6ccccc6)CC5)C(F)(F)C4)cccc3C2=O)C(=O)N1 (stereo not drawn)	B (80%< substrate protein remaining %≤ 100%)
O=C1CCC(N2Cc3ccc(CN4CCC(N5CCN(C(c6ccccc6)c6ccccc6)CC5)CC4)cc3C2=O)C(=O)N1 (stereo not drawn)	A (0% ≤ substrate protein remaining % ≤ 80%)
O=C1CCC(N2C(=O)c3ccc(CN4CCC(N5CCC(c6noc7cc(F)ccc67)CC5)C(F)(F)C4)cc3C2=O)C(=O)N1 (stereo not drawn)	B (80%< substrate protein remaining %≤ 100%)
O=C1CCC(N2Cc3cc(C(=O)N4CCC(N5CCN(c6cccc(Cl)c6Cl)CC5)CC4)ccc3C2=O)C(=O)N1 (stereo not drawn)	B (80%< substrate protein remaining %≤ 100%)
CC1(C)CCC(C(=O)N2CCN(C3CCN(Cc4ccc5c(c4)C(=O)N(N4CCC(=O)NC4=O)C5=O)CC3(F)F)CC2)=C(c2ccc(Cl)cc2)C1 (stereo not drawn)	A (0% ≤ substrate protein remaining % ≤ 80%)
O=C1CCC(N2C(=O)c3cccc(C(=O)N4CCC(N5CCN(c6noc7cc(F)ccc67)CC5)CC4)c3C2=O)C(=O)N1 (stereo not drawn)	B (80%< substrate protein remaining %≤ 100%)
